Molecules are shown by their SMILES. Some of the results follow. Entries with a potency or affinity are not part of this list. Activity calls are given as the source filed them. Rule as the data show it: active = activation above about 50% (passing the limit was not always enough); inactive = the rest.

Protein sequences, listed by entry. Tags and fused reporters are not part of them. Lines headed by an entry give the natural chain unless they say otherwise; changes in a name come on top.
UniProt P41145: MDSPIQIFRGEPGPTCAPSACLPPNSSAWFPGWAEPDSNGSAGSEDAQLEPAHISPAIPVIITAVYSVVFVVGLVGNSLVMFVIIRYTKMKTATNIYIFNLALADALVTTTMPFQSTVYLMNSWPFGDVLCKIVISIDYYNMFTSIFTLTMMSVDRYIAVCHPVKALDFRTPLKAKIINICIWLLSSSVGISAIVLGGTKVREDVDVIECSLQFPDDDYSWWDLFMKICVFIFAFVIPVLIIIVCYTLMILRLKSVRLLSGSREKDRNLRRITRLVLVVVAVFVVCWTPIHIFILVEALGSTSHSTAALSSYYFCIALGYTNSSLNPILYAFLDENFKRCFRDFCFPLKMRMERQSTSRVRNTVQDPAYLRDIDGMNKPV

The assay addresses Kappa-type opioid receptor (Homo sapiens) (UniProt P41145). As to the kind of experiment: kappa opioid receptor activators – cell-based, luminescence, uHTS, primary screen (AID 1777). To be noted: KOR beta-arrestin recruitment, at 10 µM, active compounds read high.
For the compound `COc1ccc(OC)c(C(=O)CSc2nc3ccccc3n2CC(=O)NC(C)(C)C)c1`, the activation is inactive: -1.3%.
Regarding `O=c1oc2ccccc2c2c1ncn2CCN1CCOCC1`, the activation is inactive: 5.9%.
As to `CCN(CC)CCn1c(NS(=O)(=O)c2ccc(Cl)cc2)nc2ccccc21`, the activation is inactive: -1.5%.
The figure for `Cn1c(=O)c2c(nc(CN3CCN(c4ccccc4)CC3)n2CCN2CCOCC2)n(C)c1=O` is inactive: -0.1%.
Consider `C[C@H]1OP(=O)(Oc2ccccc2)[C@H](O)[C@H](O)[C@H]1N=[N+]=[N-]` (some centres not stated), for which the activation is inactive: -1%.
Regarding `Cc1cc2ncn(C3CC(=O)N(Cc4ccc(N5CCCC5=O)cc4)C3=O)c2cc1C` (configuration not stated), the activation is inactive: -0.9%.
Consider `Cn1c(=O)c2c(ncn2CC(=O)N/N=C/c2c[nH]c3ccccc23)n(C)c1=O`, for which the activation is inactive: 1.5%.
The figure for `COc1ccccc1OCCSc1nc2ccccc2n1CC(N)=O` is inactive: 0.5%; for `Cn1c(=O)c2c(ncn2CC(=O)N2CCOCC2)n(C)c1=O` it is inactive: -1.6%.
Take `Cn1c(=O)c2c(ncn2CC(=O)Nc2nc(-c3ccc(F)c(F)c3)cs2)n(C)c1=O`: the activation was inactive: -0.7%.
Regarding `O=P(Nc1nc2ccccc2s1)(c1ccccc1)c1ccccc1`, the activation was inactive: 1.6%.
Regarding `N=c1n(CCN2CCCC2)c2ccccc2n1CC(O)c1ccco1` (configuration not stated), the activation is inactive: -1.8%.
For `CC(C)N(C(=O)Cn1c(SCC(=O)NC2CC2)nc2ccccc21)C(C)C`, the activation was inactive: 3%.
The figure for `O=C(Cn1c(=O)n(CC(=O)NCc2ccccc2)c2ccccc21)NCc1ccccc1` is inactive: -8.2%; for `Cc1ccc2c(c1)C1CN(C)CCC1N2C(=S)NC(=O)c1ccc(Cl)cc1Cl` (configuration not stated) it is inactive: 2.5%.
The figure for `CC(/C=N\NC(=O)Cn1c(C)nc2ccccc21)=C\c1ccccc1` is inactive: -1.2%; for `Cc1ccc(C)c(Cn2c(=O)c3c(nc4n3CCN4Cc3ccco3)n(C)c2=O)c1` it is inactive: -11.9%; for `CCCC(=O)Nc1ccc2c(c1)nc1n2CCN(CCOC)C1` it is inactive: 6%.
On to `CCC(=O)N1C2C3N(C(=O)CC)C1C1N(C(=O)CC)C(C(N1C(=O)CC)N3C(=O)CC)N2C(=O)CC`, for which the activation is inactive: -0.1%.
For `O=C(OC1CN2CCC1CC2)c1ccccc1` (configuration not stated), the activation is inactive: -0.2%.
With `CC(O)CNc1nc2ccccc2n1CC(=O)NC12CC3CC(CC(C3)C1)C2` (configuration not stated), the activation is inactive: -1.5%.
As for `CC1CN(CCn2cnc3c(N)ncnc32)CC(C)O1` (configuration not stated), the activation is inactive: -1.9%.
As to `Cc1ccc2c(c1)C1CN(C)CCC1N2C(=O)c1cccc(S(=O)(=O)N(C)C)c1` (configuration not stated), the activation was inactive: -3.5%.
For `O=C(CCCCCNC(=O)N1CCn2c1nc1ccccc12)NCc1ccc(F)cc1`, the activation was inactive: -1.5%.
The figure for `O=C1CC(N2CCC(n3c(=O)[nH]c4ccccc43)CC2)C(=O)N1Cc1ccccc1` (configuration not stated) is inactive: 8.9%.
For `CC(C)N(C(=O)Cn1c(SCC(=O)Nc2nccs2)nc2ccccc21)C(C)C` the value was inactive: 1.2%; for `CC(C)[C@H](NC(=O)N1CCn2c1nc1ccccc12)C(=O)NCCc1ccccc1`, inactive: -5.4%; for `CN1CCC(N(C)c2ccc(C(N)=O)cc2[N+](=O)[O-])CC1`, inactive: 1.9%.
Regarding `Cc1ccc2c(c1)C1CN(C)CCC1N2S(=O)(=O)c1ccccc1` (configuration not stated), the activation is inactive: 4.5%.
Take `CCc1cccc(CC)c1N(COC)C(=O)Cn1c(C(C)O)nc2ccccc21` (configuration not stated): the activation was inactive: 3.4%.
For `Cn1c(=O)c2c(ncn2CC(=O)Nc2ccccc2N2CCOCC2)n(C)c1=O` the value was inactive: -1%; for `FC(F)(F)c1nc2ccccc2n1CCNc1nc(CN2CCCCC2)cs1`, inactive: 2.2%; for `Cc1ccc(OP(=O)(Nc2ccccn2)Oc2ccc(C)cc2)cc1`, inactive: -3%.
As to `CC(=O)NC(SC(=S)N(CC(C)C)CC(C)C)C(Cl)(Cl)Cl` (configuration not stated), the activation is inactive: -0.4%.
Take `Cn1c(=O)c2c(ncn2CC(=O)NC2CCCCC2)n(C)c1=O`: the activation was inactive: 8.2%.
With `COC(=O)c1cc2c(s1)N=C(c1ccccc1)N(C)P2(=O)N1CCOCC1` (configuration not stated), the activation is inactive: 1.9%.
In the case of `CC(C)NC(=O)Cn1cnc2c1c(=O)n(C)c(=O)n2C`, the activation was inactive: 13.7%.
Take `Cc1sc2ncnc(NC3CCN(Cc4ccccc4)CC3)c2c1C`: the activation was inactive: -1.8%.
In the case of `CC(=O)N[C@@H](C)c1nc2ccccc2n1CCNC(=O)[C@H]1CCCN1c1nc(CN2CCCCC2)cs1`, the activation was inactive: 9.2%.
For the compound `CC(/C=N/NC(=O)Cn1cnc2c1c(=O)n(C)c(=O)n2C)=C\c1ccco1`, the activation is inactive: -0.1%.
With `Cc1ccc(OCCNC(=O)Cn2cnc3c(=O)n(C)c(=O)n(C)c32)cc1C`, the activation was inactive: 3%.
Consider `CN(C)C(=O)Oc1noc2ccccc12`, for which the activation is inactive: -4.7%.
On to `O=c1c2cc([N+](=O)[O-])ccc2[nH]c2c([N+](=O)[O-])cc([N+](=O)[O-])cc12`, for which the activation is inactive: -1.7%.
Regarding `CN(C)CCn1cnc2ccccc21`, the activation was inactive: 21%.
`CCOC(=O)C1=C(Cn2cnc3ccccc32)NC(=O)NC1c1ccc(Cl)cc1` (configuration not stated): the activation was inactive: -6.3%.
In the case of `Cc1ccccc1OP(=O)(Nc1ccccn1)Oc1ccccc1C`, the activation is inactive: 4.6%.
Regarding `CCc1cccc(C)c1N(C(=O)Cn1c(CO)nc2ccccc21)C(C)COC` (configuration not stated), the activation is inactive: -3.5%.
As for `CC1CCCN(C(=O)Cn2cnc3c2c(=O)n(C)c(=O)n3C)C1` (configuration not stated), the activation was inactive: -7.1%.
On to `Cn1c(=O)c2c(ncn2CC(=O)N2CCN(c3ccccc3)CC2)n(C)c1=O`, for which the activation was inactive: -2%.
Take `COCCN1CCn2c(nc3cc(Nc4nnc(C)c5ccccc45)ccc32)C1`: the activation was inactive: 8.2%.
Turning to `COCCNC(=O)Cn1c(=O)n(C)c2ccccc21`, the activation was inactive: -1.6%.
Consider `CCOC(=O)NC(Sc1ccccc1)C(Cl)(Cl)Cl` (configuration not stated), for which the activation is inactive: 0.3%.
Consider `Cc1nc2cc(C(F)(F)F)ccc2n1CCNc1nc(-c2cc(Cl)c(N)c(Cl)c2)cs1`, for which the activation is inactive: -2%.
For `O=c1[nH]c2ccccc2n1C1CCN(CCCC(c2ccc(F)cc2)c2ccc(F)cc2)CC1` the value was inactive: -0.1%.
Consider `Cc1ccc(NP(=O)(Oc2cccc(C)c2)Oc2cccc(C)c2)nc1`, for which the activation was inactive: 17.4%.
Regarding `CC(C)(C)C(=O)N1CCn2c1nc1ccccc12`, the activation was inactive: -4.6%.
For the compound `Cc1ccc(Cn2c(=O)c3c(nc4n3CCN4Cc3ccco3)n(C)c2=O)cc1`, the activation is inactive: -8.2%.
Consider `CCOC(=O)C1CCCN(C(=O)Cn2cnc3c2c(=O)n(C)c(=O)n3C)C1` (configuration not stated), for which the activation was inactive: -3.7%.
As for `Cn1c(=O)c2ncn(CC(=O)Nc3ccc(N4CCOCC4)cc3)c2n(C)c1=O`, the activation is inactive: 8.5%.
Turning to `O=C(C1CCCN1S(=O)(=O)c1cccc2cccnc12)N1CCn2c1nc1ccccc12` (configuration not stated), the activation is inactive: 1.4%.
On to `c1ccc(-c2nn[nH]n2)c(-c2nn[nH]n2)c1`, for which the activation was inactive: 5.7%.
Regarding `O=C(Cn1c(-c2ccco2)nc2ccccc21)N1CCCCC1`, the activation was inactive: -0.6%.
In the case of `S=C(Nc1ccccc1)N1CCn2c1nc1ccccc12`, the activation was inactive: -2.4%.
On to `COc1cccc(/C=N/NC(=O)Cn2cnc3c2c(=O)n(C)c(=O)n3C)c1`, for which the activation was inactive: -2.8%.
Turning to `c1ccc(CN2CCN(CCN3CCn4c3nc3ccccc34)CC2)cc1`, the activation is inactive: 5.7%.
For `Cc1nc2ccccc2n1C1CC(=O)N(Cc2ccccc2)C1=O` (configuration not stated) the value was inactive: 0.5%.
The figure for `CC(c1ccccc1)N1CCn2c(nc3cc(NS(C)(=O)=O)ccc32)C1` (configuration not stated) is inactive: -1.7%; for `COc1cc(/C=N/NC(=O)Cn2cnc3c2c(=O)n(C)c(=O)n3C)ccc1O` it is inactive: 1.8%; for `CCSc1nc2ccccc2n1CC(=O)N1CCOCC1` it is inactive: -0.2%.
On to `COc1cccc(NC(=O)[C@H](C)NC(=O)N2CCn3c2nc2ccccc23)c1`, for which the activation was inactive: 1.3%.
For `O=C(NC1CCS(=O)(=O)C1)NP(=S)(Oc1ccccc1)Oc1ccccc1` (configuration not stated) the value was inactive: -1.8%.
As for `CCNC(=S)/N=C(\N)N[N+](=O)[O-]`, the activation was inactive: -2.8%.
Take `CC(O)CNc1nc2ccccc2n1CC(=O)NCCc1ccc(Cl)cc1` (configuration not stated): the activation is inactive: -5.8%.
With `CC(NC(=O)CCNC(=O)N1CCn2c1nc1ccccc12)c1ccccc1` (configuration not stated), the activation is inactive: -3.7%.
As for `CC1Cc2ccccc2N1C(=O)Cn1cnc2c1c(=O)n(C)c(=O)n2C` (configuration not stated), the activation was inactive: -1.1%.
`O=C(Nc1nc2ccccc2n1CCN1CCCCC1)C1CCCCC1`: the activation is inactive: 0.3%.
For `Cc1ccc(-c2csc(NCCn3c(C(F)(F)F)nc4ccccc43)n2)cc1`, the activation is inactive: -2.3%.
Turning to `Cn1c(=O)c2c(nc(CN3CCN(C(=O)c4ccco4)CC3)n2CC(N)=O)n(C)c1=O`, the activation is inactive: 0.4%.
As for `COc1ccccc1C(=O)Nc1ccc2c(c1)nc1n2CCN(C2CCCCC2)C1`, the activation is inactive: 5.4%.
The figure for `CCC(=O)Nc1cccc(C(=O)/C=C/c2cc(Br)ccc2OC)c1` is inactive: -1.4%; for `O=C(Cn1c(-c2cscn2)nc2ccccc21)Nc1ccccc1F` it is inactive: 0.5%; for `O=C(Nc1nc2ccccc2n1CCN1CCCCC1)c1ccco1` it is inactive: 9.9%.
On to `O=S(=O)(c1ccccc1)c1nnn2c1nc(NC1CCN(Cc3ccccc3)CC1)c1ccccc12`, for which the activation is inactive: -2.9%.
For `CCCS(=O)(=O)N1CCn2c(nc3ccccc32)C1`, the activation is inactive: 8.3%.
Regarding `CC(=O)NC(C)c1nc2ccccc2n1CC(=O)N1C(C)CCCC1C` (configuration not stated), the activation was inactive: -4.7%.
`Cc1ccc(CN2C(=O)c3ccccc3NC23CCN(Cc2ccccc2)CC3)cc1`: the activation is inactive: 5%.
`CC(C)NC(=O)Cn1c(SCC(=O)N2c3ccccc3CC2C)nc2ccccc21` (configuration not stated): the activation was inactive: -5.8%.
For `O=C(c1ccc(Cl)cc1)N1CCn2c1nc1ccccc12`, the activation is inactive: -3.7%.
Consider `CCOC(=O)CSc1nc2ccccc2n1CC(=O)N(C(C)C)C(C)C`, for which the activation is inactive: 4.1%.
For `Cn1c(=O)c2c(ncn2CC(=O)N2CCN(C(=O)c3ccco3)CC2)n(C)c1=O` the value was inactive: -2.4%.
`O=S(=O)(c1ccccc1)N1CCn2c(nc3ccccc32)C1`: the activation is inactive: -1.2%.
The figure for `COc1ccc(NS(=O)(=O)c2cc(NC(=O)Cn3cnc4c3c(=O)n(C)c(=O)n4C)ccc2C)cc1` is inactive: 0.3%.

The record behind these values is PubChem BioAssay AID1777 (Sanford-Burnham Center for Chemical Genomics, 2009).
